Measurements from PubChem BioAssay AID1347056 (Sanford-Burnham Center for Chemical Genomics, 2019).
The entries are a selection whose mix differs from that of the whole data set. Some structures show a salt or complex split into parts, the way the source records it. Active and inactive are the calls of the source.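 How the source made its calls: active means compounds whose plate-normalised and pattern-corrected inhibition of the luciferase reporter signal at the single screening dose is 50% or more; inactive means the rest.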

Test: TROY pathway blockers in reporter cells – Q293 LMP1-TROYcd cells, NF-kB luciferase, uHTS, primary screen (AID 1347056)
Conditions: 4 h, at 10 µM, hits give high values
In the case of `Cc1c([N+](=O)[O-])cc([N+](=O)[O-])c(Br)c1[N+](=O)[O-]`, the inhibition is reported as inactive: 9.96%. For `COc1ccc(OP(C)(=O)Nc2ccc(SC(F)(F)F)cc2)cc1` (centres undefined), the inhibition was inactive: 14.8%. In the case of `CCOC(=O)c1ccc(NP(C)(=O)Oc2ccc(F)cc2)cc1` (centres undefined), the inhibition is reported as inactive: 5.21%. With `CCN(CC)CCCNc1ccccc1[N+](=O)[O-].O=[N+]([O-])c1cc([N+](=O)[O-])c(O)c([N+](=O)[O-])c1` the inhibition was inactive: -16.1%. With `COc1ccc2c(c1O)-c1c(O)c(OC)cc3c1[C@H](C2)[N+](C)(C)CC3.O=[N+]([O-])c1cc([N+](=O)[O-])c([O-])c([N+](=O)[O-])c1[O-]` the inhibition was inactive: -19.9%. For `O=C(OCCN1CCN(CCOCc2ccccc2)CC1)C(O)(c1ccccc1)c1ccccc1`, the inhibition was inactive: 0.55%. With `O=C(OC1CN2CCC1CC2)c1ccc([N+](=O)[O-])cc1` (centres undefined) the inhibition was inactive: -16.6%. In the case of `CC(C)c1ccc(OP(C)(=O)Nc2ccc(SC(F)(F)F)cc2)cc1` (centres undefined), the inhibition is reported as inactive: 1.3%. With `CP(=O)(Nc1ccccc1F)Oc1ccccc1` (centres undefined) the inhibition was inactive: 3.86%. In the case of `O=[N+]([O-])c1cc([N+](=O)[O-])c(Nc2ccc(Cl)cc2)c([N+](=O)[O-])c1`, the inhibition is reported as active: 59.4%. In the case of `O=[N+]([O-])c1cc([N+](=O)[O-])c(C(F)(F)F)c([N+](=O)[O-])c1O`, the inhibition is reported as inactive: -2.65%. With `Cc1ccccc1NP(C)(=O)Nc1ccccc1C` the inhibition was inactive: -3.16%. For `CP(=O)(Nc1ccc2c(c1)OCCO2)Oc1ccccc1` (centres undefined), the inhibition was active: 65.8%. In the case of `CCOP(C)(=S)SCC(=O)NC(C)(CC)C(=O)O` (centres undefined), the inhibition is reported as inactive: -0.82%. In the case of `CP(=O)(Nc1ccc(SC(F)(F)F)cc1)Oc1ccc(F)cc1` (centres undefined), the inhibition is reported as inactive: 2.1%. With `Cc1c(C(c2ccc3c(c2)OCO3)c2c(C)n(C)n(-c3ccccc3)c2=O)c(=O)n(-c2ccccc2)n1C.O=[N+]([O-])c1cc([N+](=O)[O-])c(O)c([N+](=O)[O-])c1` the inhibition was inactive: 10.4%. With `Cc1cc(-c2cccc3ccccc23)c(C)cn1.O=[N+]([O-])c1cc([N+](=O)[O-])c(O)c([N+](=O)[O-])c1` the inhibition was inactive: 9.38%. In the case of `O=[N+]([O-])c1cc([N+](=O)[O-])c(NCC2CCS(=O)(=O)C2)c([N+](=O)[O-])c1` (centres undefined), the inhibition is reported as inactive: -7.52%. In the case of `O=[N+]([O-])c1ccc(OP2(=O)COCCO2)cc1` (centres undefined), the inhibition is reported as inactive: -2.64%. With `COc1ccc(NP(C)(=O)Oc2ccccc2OC)cc1` (centres undefined) the inhibition was inactive: 21.7%. With `CN(C)CCOC(=O)C(O)(c1ccccc1)C1CCCCC1` (centres undefined) the inhibition was inactive: -1.7%. In the case of `COc1ccc(OP(C)(=O)Nc2cccc(Br)c2)cc1` (centres undefined), the inhibition is reported as inactive: 4.46%. In the case of `CP(=O)(OC12CC3CC(CC(C3)C1)C2)OC12CC3CC(CC(C3)C1)C2`, the inhibition is reported as inactive: 9.1%. With `CCOC(=O)c1ccc(NP(C)(=O)Oc2ccc(Cl)cc2)cc1` (centres undefined) the inhibition was inactive: 10.7%. With `CN(C)C(=O)c1c([N+](=O)[O-])cc([N+](=O)[O-])cc1[N+](=O)[O-]` the inhibition was inactive: -10.2%. For `CP(=O)(Nc1ccc(Cl)cc1)Oc1ccc(F)cc1` (centres undefined), the inhibition was inactive: 6.81%. In the case of `CC(C)(C)c1ccc(OP(C)(=O)O)cc1`, the inhibition is reported as inactive: -2.18%. For `COc1ccccc1OP(C)(=O)Nc1ccccc1Br` (centres undefined), the inhibition was inactive: 14.5%. In the case of `CP(=O)(Oc1ccccc1)N1CCOC1=O` (centres undefined), the inhibition is reported as inactive: 4.33%. With `CCc1ccc(OP(C)(=O)Nc2cccnc2)cc1` (centres undefined) the inhibition was inactive: 0.25%. In the case of `COc1ccccc1OP(C)(=O)Nc1c(C)n(C)n(-c2ccccc2)c1=O` (centres undefined), the inhibition is reported as inactive: -15.1%. For `O=C(OCCCN1CCCC1)C(O)(c1ccccc1)C1CCCCC1` (centres undefined), the inhibition was inactive: -0.69%. With `CCN(CC)CC(O)COC(=O)C(O)(c1ccccc1)C1CCCCC1` (centres undefined) the inhibition was inactive: -2.76%. With `COc1ccc(OP(C)(=O)Nc2ccc(Br)cc2)cc1` (centres undefined) the inhibition was inactive: -9.14%. For `CCc1ccc(OP(C)(=O)O)cc1`, the inhibition was inactive: -9%. For `CP(=O)(Nc1ccccn1)Oc1ccccc1` (centres undefined), the inhibition was inactive: 0.88%. With `COc1ccccc1OP(C)(=O)Nc1ccc(C)cc1C` (centres undefined) the inhibition was inactive: -2.96%. With `O=[N+]([O-])c1cc([N+](=O)[O-])c(Nc2ccccn2)c([N+](=O)[O-])c1` the inhibition was inactive: 16.7%. With `Cc1c(NP(C)(=O)Oc2ccc(C(C)C)cc2)c(=O)n(-c2ccccc2)n1C` (centres undefined) the inhibition was inactive: 2.72%. For `CN(C)CCOC(=O)C(O)(c1ccccc1)C1CCCC1` (centres undefined), the inhibition was inactive: 2.81%. For `COc1ccc(OP(C)(=O)Nc2ccccn2)cc1` (centres undefined), the inhibition was inactive: 14.5%. For `COc1ccccc1OP(C)(=O)Nc1ccc(Br)cc1` (centres undefined), the inhibition was inactive: 5.11%. For `CP(=O)(OCCOc1ccccc1)OCCOc1ccccc1`, the inhibition was inactive: 2.68%. In the case of `CP(=O)(Nc1ccc(Cl)cc1Cl)Oc1ccccc1` (centres undefined), the inhibition is reported as inactive: -10%. For `CCCCCCCCCCCCCCCC1C[N+](C)(C)CCOP(C)(=O)O1` (centres undefined), the inhibition was inactive: -29.6%. With `COc1ccc(OP(C)(=O)Nc2ccccc2Br)cc1` (centres undefined) the inhibition was inactive: -8.38%. With `COc1ccccc1OP(C)(=O)Nc1ccc(C)c(C)c1` (centres undefined) the inhibition was inactive: -33.1%. With `O=C1C(O)=C([N+](=O)[O-])C(=O)C(O)=C1[N+](=O)[O-]` the inhibition was inactive: 2.91%. In the case of `Cc1cc(C)cc(OP(C)(=O)Nc2cccc(C(F)(F)F)c2)c1` (centres undefined), the inhibition is reported as inactive: -3.41%.
